Measurements from ChEMBL document CHEMBL4028887, “Improvement of Cell Permeability of Human Neuronal Nitric Oxide Synthase Inhibitors Using Potent and Selective 2-Aminopyridine-Based Scaffolds with a Fluorobenzene Linker” (J Med Chem, 2017).

Biological target: T1, Nitric oxide synthase 3 (Homo sapiens, UniProt P29474)
T1 sequence (P29474 whole entry): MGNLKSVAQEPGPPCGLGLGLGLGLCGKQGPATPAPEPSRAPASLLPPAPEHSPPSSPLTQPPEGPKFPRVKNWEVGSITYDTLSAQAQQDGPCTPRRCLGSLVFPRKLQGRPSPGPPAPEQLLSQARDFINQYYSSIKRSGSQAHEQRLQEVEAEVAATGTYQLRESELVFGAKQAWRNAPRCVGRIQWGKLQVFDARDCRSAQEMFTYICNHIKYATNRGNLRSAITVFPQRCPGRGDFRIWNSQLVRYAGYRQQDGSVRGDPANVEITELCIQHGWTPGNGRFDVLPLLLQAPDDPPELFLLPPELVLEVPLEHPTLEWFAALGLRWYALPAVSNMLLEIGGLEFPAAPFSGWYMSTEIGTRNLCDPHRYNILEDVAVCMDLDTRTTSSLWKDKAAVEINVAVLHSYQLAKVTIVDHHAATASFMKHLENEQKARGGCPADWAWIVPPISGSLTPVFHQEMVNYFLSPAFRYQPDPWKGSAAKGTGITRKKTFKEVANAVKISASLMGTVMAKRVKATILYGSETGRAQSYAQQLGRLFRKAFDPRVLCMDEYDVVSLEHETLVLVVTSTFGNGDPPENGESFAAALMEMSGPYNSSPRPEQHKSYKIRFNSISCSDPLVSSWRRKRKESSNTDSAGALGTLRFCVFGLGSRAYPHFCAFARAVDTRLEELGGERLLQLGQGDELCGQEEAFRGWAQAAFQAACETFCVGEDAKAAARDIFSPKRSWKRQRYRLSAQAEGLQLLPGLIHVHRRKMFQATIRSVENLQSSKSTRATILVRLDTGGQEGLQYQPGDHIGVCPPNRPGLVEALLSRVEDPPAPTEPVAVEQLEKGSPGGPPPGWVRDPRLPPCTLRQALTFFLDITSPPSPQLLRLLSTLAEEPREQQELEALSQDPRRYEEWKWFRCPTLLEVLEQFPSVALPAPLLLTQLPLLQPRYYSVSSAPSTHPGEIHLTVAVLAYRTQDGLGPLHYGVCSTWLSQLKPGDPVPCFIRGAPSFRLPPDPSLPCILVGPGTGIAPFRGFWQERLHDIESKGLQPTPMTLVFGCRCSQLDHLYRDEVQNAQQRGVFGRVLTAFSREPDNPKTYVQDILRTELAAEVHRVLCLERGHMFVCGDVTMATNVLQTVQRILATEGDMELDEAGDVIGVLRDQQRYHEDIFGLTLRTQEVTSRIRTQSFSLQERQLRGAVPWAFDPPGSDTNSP
Assay type: ADME

Q: With CNCc1ccc(-c2cncc(CCc3cc(C)cc(N)n3)c2)cc1 as the compound, how does the Ki read?
A: 68.5 µM
